Results reported in patent US20160122821A1, “GENETIC MARKERS OF ANTIPSYCHOTIC RESPONSE” (SUREGENE, LLC, priority 2013, published 2016).

System: Caucasian patients with schizophrenia (CATIE)
Assay: Genetic association (linear regression, additive model) of SNP alleles with MMRM-modelled change in PANSS Total Score under antipsychotic treatment, CATIE trial
Type: in vivo, human
Experimental: For the CATIE study, individual cases were diagnosed as having SZ based on DSM-III/IV criteria. Treatment response for all patients was assessed using the Positive and Negative Syndrome Scale (PANSS) (Kay et al., 1987; Kay et al., 1989; Leucht et al., 2005). […] To avoid possible bias in post hoc selection of a treatment response variable, the inventors used the mixed model repeated measures (MMRM) approach developed by van den Oord and coworkers (van den Oord et al., 2009). […] The design of the CATIE study, including details of consent for genetic analyses, has been described in detail by others (Lieberman et al., 2005; Stroup et al., 2003; Sullivan et al., 2008). Only retrospective genetic analyses, judged to be exempt from human studies requirements by an IRB, were conducted in the current study. Consented DNA samples were obtained from the Rutgers University Cell and DNA Repository in collaboration with […]. […] All of these patients self-reported as having exclusively European ancestry. […] Genotyping was performed on a fee for service basis according to Illumina's standard operating procedures. Raw intensity files were processed using Illumina® BeadStudio version 1.7.4 software. […] Only two of these had been previously genotyped in the CATIE sample. […] To allow comparison to previously published PGx findings for CATIE and to avoid possible bias in post-hoc selection of a treatment response variable, the inventors used the mixed model repeated measures (MMRM) approach developed by Van den Oord and coworkers (van den Oord et al., 2009; […] et al., 2011). Briefly, this method models random effects by introducing random slopes for treatment effects, allowing treatment effects to be different across subjects. The MMRM approach serves to increase the statistical power to detect genetic associations by increasing the precision in measuring change in PANSS Total Score (PANSS-T) by accounting for variance due to baseline PANSS-T, and treatment, as well as smoothing out the random fluctuations in PANSS-T between visits due to various uncontrolled variables. […] Bozeman, Mont.). Quantile-Quantile (QQ) plots were prepared using the R statistical package version 2.14.1. For comparison purposes, original CATIE-provided SNP genotypes in specific genes were evaluated using the same genetic analysis. Haplotype association integrating newly generated and original genotypes for specific regions was carried out in SVS using haplotype blocks predefined by Haploview software. […] For each of the SNPs listed the reference SNP (rs) number is provided, which provides the known sequence context for the given SNP (see, e.g., National Center for Biotechnology Information (NCBI) SNP database available on the world wide web at ncbi.nlm.nih.gov/snp).

SMILES: Cc1cc2c(s1)Nc1ccccc1N=C2N1CCN(C)CC1 [Olanzapine, olanzapine]
- Beta (PANSS) (ATP2B2 rs3774155 allele A): 3.48 PANSS
- Beta (PANSS) (C8orf34 rs2591003 allele A): 3.76 PANSS
- Beta (PANSS) (CNTNAP2 rs6957194 allele A): 3.62 PANSS
- Beta (PANSS) (CNTNAP2 rs10240221 allele A): 3.17 PANSS
- Beta (PANSS) (CNTNAP2 rs10263151 allele C): 3.55 PANSS
- Beta (PANSS) (CSMD1 rs2449210 allele C): 2.89 PANSS
- Beta (PANSS) (ERC2 rs2047566 allele C): 3.62 PANSS
- Beta (PANSS) (ERCC6 rs2228527 allele A): 3.86 PANSS
- Beta (PANSS) (GPSM1 rs7853207 allele C): 3.92 PANSS
- Beta (PANSS) (KCNIP1 rs10050842 allele A): 3.26 PANSS
- Beta (PANSS) (PPA2 rs923587 allele C): 3.86 PANSS
- Beta (PANSS) (QRFPR rs11098616 allele A): 3.26 PANSS
- Beta (PANSS) (SLC25A21 rs848097 allele C): 3.49 PANSS
- Beta (PANSS) (WWC1 rs10042345 allele C): 3.55 PANSS
